# Earlier results, collected in article PMC8893036 (European journal of medicinal chemistry, 2022).
# Protein sequences, listed by entry. Tags and fused reporters are not part of them.
# UniProt P0DMS8, whole entry: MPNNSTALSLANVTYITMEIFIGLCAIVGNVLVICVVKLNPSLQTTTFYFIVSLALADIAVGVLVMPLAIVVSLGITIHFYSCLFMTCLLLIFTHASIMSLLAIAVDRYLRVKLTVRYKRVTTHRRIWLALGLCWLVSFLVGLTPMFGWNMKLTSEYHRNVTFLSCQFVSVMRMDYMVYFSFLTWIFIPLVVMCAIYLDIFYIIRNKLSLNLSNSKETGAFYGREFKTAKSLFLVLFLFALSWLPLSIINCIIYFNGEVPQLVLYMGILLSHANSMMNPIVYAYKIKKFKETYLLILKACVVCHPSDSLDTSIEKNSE
# Molecular target: human A3 adenosine receptor (Homo sapiens, UniProt P0DMS8)
# Conditions: agonists; Tables S1 – S4; cited from earlier work
smiles,measurement,value
"CNC(=O)[C@H]1O[C@@H](n2cnc3c(NCc4cccc(I)c4)nc(Cl)nc32)[C@H](O)[C@@H]1O [Compound 4, reference compound]",human A3 adenosine receptor affinity,single digit nM affinity
